Assay results published in ChEMBL document CHEMBL1139064, “Carbonic anhydrase activators: an activation study of the human mitochondrial isoforms VA and VB with amino acids and amines” (Bioorg Med Chem Lett, 2007).

Amino acid sequences for entries named in this document (tags omitted). A change or cut given only in a name is not applied to a line headed by its entry.
UniProt P35218: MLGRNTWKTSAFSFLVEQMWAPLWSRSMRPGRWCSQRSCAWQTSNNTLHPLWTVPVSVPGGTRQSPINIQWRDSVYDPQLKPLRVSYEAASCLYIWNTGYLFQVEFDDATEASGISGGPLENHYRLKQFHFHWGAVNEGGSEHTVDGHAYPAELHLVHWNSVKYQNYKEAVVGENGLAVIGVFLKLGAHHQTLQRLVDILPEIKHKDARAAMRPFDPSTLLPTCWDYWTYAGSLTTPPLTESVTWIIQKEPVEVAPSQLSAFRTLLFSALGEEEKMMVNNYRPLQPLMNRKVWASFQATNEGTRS
UniProt Q9Y2D0: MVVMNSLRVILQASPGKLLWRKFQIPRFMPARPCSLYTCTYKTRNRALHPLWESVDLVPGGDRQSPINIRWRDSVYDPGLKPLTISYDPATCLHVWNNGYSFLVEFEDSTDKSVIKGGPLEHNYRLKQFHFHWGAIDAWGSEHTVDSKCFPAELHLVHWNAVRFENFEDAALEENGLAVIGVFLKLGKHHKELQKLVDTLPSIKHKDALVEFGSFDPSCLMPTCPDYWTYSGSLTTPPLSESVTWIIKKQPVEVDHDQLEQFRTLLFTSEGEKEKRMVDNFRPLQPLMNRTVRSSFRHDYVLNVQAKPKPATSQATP

How the values were obtained:
[1] = target: Carbonic anhydrase 5A, mitochondrial (Homo sapiens) (UniProt P35218); test: Activation of human recombinant carbonic anhydrase 5A by stopped-flow CO2 hydrase method
[2] = target: Carbonic anhydrase 5B, mitochondrial (Homo sapiens) (UniProt Q9Y2D0); test: Activation of human recombinant carbonic anhydrase 5B by stopped-flow CO2 hydrase method

N[C@@H](Cc1ccccc1)C(=O)O
KA [1]: 9.81 µM
KA [2]: 10.4 µM

N[C@H](Cc1ccccc1)C(=O)O
KA [2]: 0.072 µM
